Measurements from ChEMBL document CHEMBL1131182, “Anti-AIDS agents. 34. Synthesis and structure-activity relationships of betulin derivatives as anti-HIV agents” (J Med Chem, 1998).

Experiment: Therapeutic Index is the […] of the IC50 to that of EC50
Assay type: cell-based
Details: human, H9 cells; read-out: TI

Cc1cn([C@H]2C[C@H](N=[N+]=[N-])[C@@H](CO)O2)c(=O)[nH]c1=O [ZIDOVUDINE]
selectivity ratio: 33300
